Data reported in PMC8429249 (Journal of medicinal chemistry, 2021).

Test system: HeLa cells
Settings: 5 μM FAM-labeled peptide, 2 h, 1% FBS

Question: ΦOSQΦΠ-K-fArR-J-BBK-NH2 [Peptide B3-4] was tested. Which “fold lower cellular entry efficiency than B4-27” value did it give?
Answer: The value was 4 fold.
